Measured affinities in a library of Ab-95 light chain variants

Antigen: PDVDLGDISGINAS, a 14-residue peptide of the SARS-CoV-2 spike HR2 region.

Parent scFv Ab-95: VH joined to VL by a 15-residue (Gly4Ser)3 linker. Changes lie in the light chain CDRs alone.
VH: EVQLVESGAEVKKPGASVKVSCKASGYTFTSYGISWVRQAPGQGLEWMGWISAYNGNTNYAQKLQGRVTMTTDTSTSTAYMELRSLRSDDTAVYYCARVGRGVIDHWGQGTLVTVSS
VL: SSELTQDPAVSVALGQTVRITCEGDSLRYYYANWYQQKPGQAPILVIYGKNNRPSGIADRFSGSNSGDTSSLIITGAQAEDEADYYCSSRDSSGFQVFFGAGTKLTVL

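The parent was found by panning a naive human phage display library on the peptide. AAYL52 was designed without a model: most single CDR substitutions and a random sample of double and triple ones. The scFvs were displayed on barcoded MATa yeast, the peptide on MATalpha yeast. After mating in shaken culture at 30 °C for 16 h, diploids were selected and their barcode pairs sequenced. A regression on co-assayed BCL2-family reference pairs converts the normalised counts of each replicate to an apparent Kd. The assay was run in three technical replicates.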

Positions count from residue 1 of the parent VL; S26W puts W in place of S.
This list gathers variants with a substitution at K50 (VL, numbered from residue 1).
Values are log10 of the apparent Kd in nM; lower means stronger binding.
Averages over replicates are reported, and they cover detected replicates only.
"nd" marks a missing value. The strain was present, yet no cells mated with the target were sequenced in any replicate, which points to weak or no binding.

- S26W+K50A+Q96S -> 3.11 (3 of 3 replicates)
- K50Y+N52C+S88Y -> 3.77 (1 of 3 replicates)
- E23L+K50I+S55F -> 3.18 (2 of 3 replicates)
- A32Q+K50E -> nd (0 of 3 replicates)
- D25M+Y29L+K50V -> 4.41 (1 of 3 replicates)
- K50R+R53S+V97W -> 4.39 (1 of 3 replicates)
- D25S+K50P+R53Q -> 2.95 (2 of 3 replicates)
- G49A+K50L+R53M -> nd (0 of 3 replicates)
- N33L+K50P+Q96G -> 4.72 (1 of 3 replicates)
- K50E+N51K+S55R -> 2.99 (3 of 3 replicates)
- K50P -> 2.34 (3 of 3 replicates)
- Y30V+K50V+N51L -> nd (0 of 3 replicates)
- K50H+N52S+G94W -> 2.53 (3 of 3 replicates)
- Y31F+A32H+K50Y -> 3.04 (2 of 3 replicates)
- R28P+K50D+F95H -> 2.27 (3 of 3 replicates)
- K50I+F95A+V97S -> 3.13 (3 of 3 replicates)
- N33Q+K50D+S93C -> 4.03 (2 of 3 replicates)
- S26V+K50A+S89N -> 4.00 (2 of 3 replicates)
- K50L+S55P+S92F -> 2.10 (3 of 3 replicates)
- K50V+F98C -> 2.76 (2 of 3 replicates)
- G24W+K50D+S88M -> 2.50 (3 of 3 replicates)
- G24L+L27Q+K50M -> 3.82 (3 of 3 replicates)
- A32S+K50H+F98V -> 2.38 (3 of 3 replicates)
- R28W+K50L+Q96Y -> 3.99 (3 of 3 replicates)
- L27Y+K50C+R53N -> nd (0 of 3 replicates)
- A32K+K50R+V97W -> nd (0 of 3 replicates)
- D25M+K50R -> 2.53 (3 of 3 replicates)
- D25V+K50W+S88N -> 4.44 (1 of 3 replicates)
- G49A+K50T+F98G -> 3.76 (1 of 3 replicates)
- A32N+K50F+N52E -> 3.87 (3 of 3 replicates)
- R28A+K50N+V97W -> nd (0 of 3 replicates)
- K50Q+S88E+F95I -> 2.71 (3 of 3 replicates)
- K50L+S88P+S92G -> nd (0 of 3 replicates)
- Y30M+K50G+V97K -> 1.64 (3 of 3 replicates)
- Y31P+K50Q+N51G -> 1.12 (3 of 3 replicates)
- Y29L+K50D+F98N -> 3.04 (3 of 3 replicates)
- Y31L+K50F+N52G -> 4.16 (1 of 3 replicates)
- Y31W+K50L+N51Q -> 4.28 (2 of 3 replicates)
- L27E+K50I+D91V -> 3.83 (2 of 3 replicates)
- E23G+G49L+K50W -> 5.24 (2 of 3 replicates)
- K50F+S89A -> 3.18 (3 of 3 replicates)
- K50P+P54N -> 2.58 (3 of 3 replicates)
- K50N+S55V+S93A -> 2.17 (3 of 3 replicates)
- G24W+G49C+K50C -> 4.40 (1 of 3 replicates)
- L27S+K50T+D91S -> nd (0 of 3 replicates)
- K50F+D91A+F95G -> 3.64 (3 of 3 replicates)

4 of these entries, quoted again:

* K50Q+S88E+F95I -> 2.71 (3 of 3 replicates)
* K50I+F95A+V97S -> 3.13 (3 of 3 replicates)
* K50V+F98C -> 2.76 (2 of 3 replicates)
* K50L+S88P+S92G -> nd (0 of 3 replicates)

For reference, the parent read 2.31 as the reference entry and 2.25 as a member of this library.
Empty control strains, which show no peptide, gave a signal in 28% of pairings with library AAYL52; the median was 3.91 and 95% of these signals were weaker than 2.90. No background was subtracted.

The measurements come from Engelhart et al. 2022 (doi:10.1038/s41597-022-01779-4) through the FLAb antibody collection.